Measurements as given in patent publication US8822420B2, “Peptides and aptamers thereof as specific modulators of mutant p53 function” (Universita Degli Studi di Trieste, priority 2008, dated 2014).

Tests used:
p53 R175H = molecular target: T1, p53 R175H (Homo sapiens, UniProt P04637, R175H); experiment: Co-immunoprecipitation of EGFP-TNV-PAs with p53 R175H in H1299 cells; assay type: binding; details: H1299 cells co-transfected with p53 R175H and EGFP-TNV-PAs, IP anti-GFP
T1 construct: expression of full-length point mutants (hereinafter identified also as mut-p53 or mutant p53); expressed in transfected cells; host or cells: H1299 (p53-null)

p53 R273H = molecular target: T2, p53 R273H (Homo sapiens, UniProt P04637, R273H); experiment: Co-immunoprecipitation of EGFP-TNV-PAs with p53 R273H in H1299 cells; assay type: binding; details: transient transfection
T2 construct: expression of full-length point mutants (hereinafter identified also as mut-p53 or mutant p53); expressed in transfected cells; host or cells: H1299 (p53-null)

Sk-Br-3 cells [1] = experiment: FACS analysis of DNA content (propidium iodide) of EGFP-positive Sk-Br-3 cells; assay type: cell-based
Sk-Br-3 cells [2] = experiment: AnnexinV-PE-Cyan5 staining by flow cytometry, Sk-Br-3 cells; assay type: cell-based; details: Sk-Br-3, GFP positive cells, 36 hours after transfection
MDA-MB-468 cells = experiment: AnnexinV-PE-Cyan5 staining by flow cytometry, MDA-MB-468 cells; assay type: cell-based; details: MDA-MB-468, GFP positive cells, 36 hours after transfection
Sk-Br-3 cells [3] = experiment: PARP cleavage (p85) by Western Blot in Sk-Br-3 cells; assay type: cell-based

DVADWESCGEYWCYRV [sA79] was tested. Which “binding to p53 R175H by co-immunoprecipitation” value (p53 R175H) did it give?
Its value is “A stronger interaction was also observed”.

And the “binding to p53 R273H by co-immunoprecipitation” value (p53 R273H)?
Its value is “A stronger interaction was also observed”.

What about the “apoptotic response (sub-G1) compared with Etoposide treatment alone” value (Sk-Br-3 cells [1]) of the same sequence?
Its value is “comparable to that observed upon drug treatment alone”.

What about the “sub-G1 peak compared with PRIMA-1” value (Sk-Br-3 cells [1]; PRIMA-1 100 μM for 20 hours) of the same sequence?
The value was “comparable to that induced by PRIMA-1”.

And the AnnexinV positive cells (Sk-Br-3 cells [2])?
The AnnexinV positive cells was “approximately 30%”.

And the AnnexinV positive cells (MDA-MB-468 cells)?
The AnnexinV positive cells was “approximately 30%”.

And the “cleaved p85 fragment of PARP-1” value (Sk-Br-3 cells [3])?
The value was “evident increase”.
